Measured values reported in article PMC4804703 (ACS chemical neuroscience, 2015).

By UniProt entry, the sequences of proteins in these tests, tags left out.
UniProt P47746, whole entry: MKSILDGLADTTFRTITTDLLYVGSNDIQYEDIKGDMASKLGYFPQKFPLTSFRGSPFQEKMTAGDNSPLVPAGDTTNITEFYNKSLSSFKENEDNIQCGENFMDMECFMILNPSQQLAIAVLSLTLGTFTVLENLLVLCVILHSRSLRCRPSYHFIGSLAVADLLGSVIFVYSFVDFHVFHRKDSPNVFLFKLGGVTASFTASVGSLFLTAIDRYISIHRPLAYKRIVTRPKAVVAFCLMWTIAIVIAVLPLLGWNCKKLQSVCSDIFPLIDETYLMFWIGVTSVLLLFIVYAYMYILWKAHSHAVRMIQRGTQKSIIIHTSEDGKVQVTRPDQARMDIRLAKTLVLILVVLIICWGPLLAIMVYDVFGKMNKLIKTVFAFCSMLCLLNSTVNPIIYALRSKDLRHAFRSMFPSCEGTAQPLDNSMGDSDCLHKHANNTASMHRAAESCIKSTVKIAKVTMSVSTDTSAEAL

Target: CB1R in mouse hippocampus (Mus musculus, UniProt P47746)
Assay: [^35S]GTPγS binding, mouse hippocampus membranes
Format: biochemical

With CCCCC/C=C\C/C=C\C/C=C\C/C=C\CCCC(=O)NCCO [AEA, arachidonoylethanolamide, reference compound] as the compound, how does the EC50 read?
Its EC50 is 4.2 ± 1 µM.
